Sequences of proteins named here, by UniProt entry; tags and fusion partners are left off. Residues count along the entry.
UniProt P08637, 17-254: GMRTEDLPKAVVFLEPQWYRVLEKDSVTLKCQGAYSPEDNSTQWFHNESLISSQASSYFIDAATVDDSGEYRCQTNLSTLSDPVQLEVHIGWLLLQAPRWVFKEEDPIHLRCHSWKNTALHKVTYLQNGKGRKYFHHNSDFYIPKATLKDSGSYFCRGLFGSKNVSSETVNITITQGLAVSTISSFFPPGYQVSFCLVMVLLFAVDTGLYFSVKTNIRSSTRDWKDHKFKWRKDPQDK

The assay addresses FcγRIIIa on primary human NK cells (human) (UniProt P08637). The experiment in a line: cell-based or functional assay.
In turn, “wild type fucosylated IgG (biosimilar version of the IgG1-type therapeutic antibody Trastuzumab, secreted from unmodified CHO-IgG cells)” came in with an ADCC EC50, BT-474 target cells, primary human NK cells of 6.03 ng/mL and an ADCC EC50, SK-BR-3 target cells, primary human NK cells of 1.31 ng/mL.
For the substance “afucosylated IgG derived from RMD-CHO clone H2 (Trastuzumab biosimilar, IgG1) (antibody)”, the ADCC EC50, BT-474 target cells, primary human NK cells stood at 0.227 ng/mL; the ADCC EC50, SK-BR-3 target cells, primary human NK cells stood at 0.0602 ng/mL; the ADCC Ratio (WT/H) of EC50, BT-474 target cells worked out at 27 fold; the ADCC Ratio (WT/H) of EC50, SK-BR-3 target cells was determined as 22 fold.
In the case of “afucosylated IgG derived from RMD-CHO clone H3 (Trastuzumab biosimilar, IgG1) (antibody)”, the ADCC EC50, BT-474 target cells, primary human NK cells was 0.647 ng/mL and the ADCC EC50, SK-BR-3 target cells, primary human NK cells was 0.0917 ng/mL.
Regarding “afucosylated IgG derived from RMD-CHO clone H1 (Trastuzumab biosimilar, IgG1) (antibody)”, the ADCC EC50, BT-474 target cells, primary human NK cells stood at 0.454 ng/mL; the ADCC EC50, SK-BR-3 target cells, primary human NK cells was determined as 0.0932 ng/mL; the ADCC Ratio (WT/H) of EC50, BT-474 target cells amounted to 13 fold; the ADCC Ratio (WT/H) of EC50, SK-BR-3 target cells was 14 fold.

The values above are taken from US20120214975A1.
